Series [1] deals with HepG2 cells. Nature of the series: Cell viability assay (MTT) with HepG2 cells. To be noted: 12 h of incubation, cells not expressing the peptide specific receptor (FIG. 7).
Series [2] concerns primary mouse hepatocytes. In words: Cell viability assay (MTT) with primary mouse hepatocytes. As to the method: Next it was analyzed if the modified doxorubicin is still cytotoxic to cells. In this experiment primary mouse hepatocytes isolated from C57BL/6 mice as described in Galle et al., (1994) (37) were incubated and reseeded in 96 well flat bottom plates to form a confluent cell layer. […] The cells were then incubated for 12 h (FIG. 6A) or 24 h (FIG. 6B), respectively. After incubation an MTT assay (Cell proliferation Kit, Roche Mannheim Germany) was performed as indicated by the manufacturer's instructions to determine remaining cell viability. The results are shown in FIGS. 6A and 6B (Cell Viability Assay).

On to “Myristoyl-[K-Doxorubicin]-NLSTSNPLGFFPDHQLDPy (SEQ ID NO:21)-amide [HBVpreS/myr-[K-Doxorubicin]3-20y]”, for which, in series [1], the cytotoxic activity entry is “no cytotoxic activity”. The cytotoxic effects entry in series [2] (after 12 h incubation (FIG. 6A)) and in series [2] (after 24 h incubation (FIG. 6B)) was “significant cytotoxic effects” in each case.

The values above are taken from US10513539B2, “Hydrophobic modified peptides and their use for liver specific targeting” (Ruprecht-Karls-Universitat Heidelberg, priority 2011, dated 2019).
